Literature values in patent US20190376142A1, “METHOD TO DISTINGUISH TUMOR SUPRESSIVE FOXO ACTIVITY FROM OXIDATIVE STRESS” (KONINKLIJKE PHILIPS N.V., priority 2016, published 2019).

Tested on: HER2-positive breast cancer patients
Conditions: HER2-positive breast cancer patients treated with Trastuzumab; cited from earlier work

In the case of Trastuzumab, the initial response rate is given as 26%.
